Assay results as given in PubChem BioAssay AID624297 (National Center for Advancing Translational Sciences (NCATS), 2012).
This is a selection; strong and weak results do not stand in their true shares. Results filed as inconclusive are left out. A call without a number means that no potency is given here. Active and inactive are the calls of the source. The call rests on the fitted dose curve; in most records, active means well fitted activation curve with a large enough effect; inconclusive means small, poorly fitted or top-dose-only effect; inactive means no such curve, though single readings can be large or run the other way.

Test: A quantitative high throughput screen for small molecules that induce DNA re-replication in SW480 colon adenocarcinoma cells. Further: nearly all actives have a fitted effect of over 55% in size.
Settings: Hoechst DNA content imaging, 48 h; series mostly up to 46.1 µM

Compound	Potency
O=[As](O)(O)c1cccnc1	inactive
O=C(OC1CN2CCC1CC2)c1ccc(Cl)cc1 (stereo not given)	inactive
Cc1cccc(OCC(=O)OC2CN3CCC2CC3)c1 (stereo not given)	inactive
CCCOP(=S)(Nc1nc(N)cc(=O)[nH]1)OCCC	inactive
Nc1cccc2c([As](=O)(O)O)cccc12	inactive
CCOP(=O)(Nc1cccc2ccccc12)OCC	inactive
COc1cc(C2NCCC3(OCCO3)C2(C)C)cc(OC)c1OC (stereo not given)	inactive
O=P(Nc1nccs1)(c1ccccc1)c1nc2ccccc2s1 (stereo not given)	inactive
O=P(Nc1nccs1)(Oc1ccccc1)Oc1ccccc1	inactive
O=C(O)COc1ccc([As](=O)(O)O)cc1[N+](=O)[O-]	inactive
Nc1ccccc1[As](=O)(O)c1ccccc1	inactive
NC(=O)Nc1ccc([As](=O)(O)O)cc1	inactive
CN(C(=O)Cc1ccc(Cl)c(Cl)c1)[C@H]1CC[C@@]2(CCCO2)C[C@@H]1N1CCCC1	inactive
O=[N+]([O-])c1ccc2c(c1)nnn2O	inactive
CN(C(=O)Cc1ccccc1)[C@@H]1CC[C@]2(CCCO2)C[C@H]1N1CCCC1	inactive
CCOP1(=S)c2c(C)nn(CCC#N)c2N=C(c2ccc(F)cc2)N1C (stereo not given)	inactive
N#CCCN(C(=O)COC(=O)C(O)(c1ccccc1)c1ccccc1)c1ccc(F)cc1	inactive
Cc1ccc(C(=O)OC2CN3CCC2CC3)cc1 (stereo not given)	inactive

Compound	Potency
CC1CCC(C(C)C)C(OP(=O)(Nc2ccccn2)c2ccccc2)C1 (stereo not given)	inactive
Cc1nn(-c2ccccc2)c2c1P(=O)(N1CCOCC1)N(C)C(c1ccccc1)=N2 (stereo not given)	inactive
CCCC1OP(=O)(Nc2ccccc2)OCC1CC (stereo not given)	inactive
O=C(/C=C/c1ccccc1)OC1CN2CCC1CC2 (stereo not given)	inactive
CN(C)C1(CNC(=O)c2ccc(S(C)(=O)=O)cc2)CCCCC1	inactive
O=P1(Nc2ncccn2)COc2ccccc2OC1	inactive
NS(=O)(=O)c1cccc(NC(=O)COC(=O)C(O)(c2ccccc2)c2ccccc2)c1	inactive
O=P1(Nc2ccc(Br)cn2)COc2ccccc2OC1	inactive
O=[As](O)(c1cccs1)c1cccs1	inactive
Cc1ccc(OCC(=O)OC2CN3CCC2CC3)cc1 (stereo not given)	inactive
Nc1cccc([As](=O)(O)c2ccccc2)c1	inactive
CCOP(=O)(Nc1ccc(C)cn1)OCC	inactive
CCOP(=O)(NC(=NC(C)c1ccccc1)NC(C)c1ccccc1)OCC (stereo not given)	inactive
CCC1=CC2Cc3nc4ccc(Cl)cc4c(N)c3C(C1)C2 (stereo not given)	inactive
O=P1(Nc2ccccn2)COc2ccccc2OC1	inactive
CC(C)(C)C(=O)NC(Sc1ncccn1)C(Cl)(Cl)Cl (stereo not given)	inactive
Clc1n[nH]nc1-c1nn[nH][15n]1	inactive
